The values below come from ChEMBL document CHEMBL3580663, “C7β-methyl analogues of the orvinols: the discovery of kappa opioid antagonists with nociceptin/orphanin FQ peptide (NOP) receptor partial agonism and low, or zero, efficacy at mu opioid receptors” (2015).

Chains of the proteins cited; added tags and fusions are not shown.
UniProt P33535, whole entry: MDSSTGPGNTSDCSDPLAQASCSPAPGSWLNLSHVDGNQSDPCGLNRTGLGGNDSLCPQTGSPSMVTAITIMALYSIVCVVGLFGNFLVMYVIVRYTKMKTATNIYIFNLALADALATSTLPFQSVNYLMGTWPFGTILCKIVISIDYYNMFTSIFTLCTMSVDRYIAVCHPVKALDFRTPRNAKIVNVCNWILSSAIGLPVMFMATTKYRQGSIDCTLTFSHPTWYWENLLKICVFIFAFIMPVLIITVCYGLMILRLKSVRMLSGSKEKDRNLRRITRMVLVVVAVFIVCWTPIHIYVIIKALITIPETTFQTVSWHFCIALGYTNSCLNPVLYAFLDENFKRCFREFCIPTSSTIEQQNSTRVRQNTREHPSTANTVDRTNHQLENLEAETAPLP

This experiment addresses Mu-type opioid receptor (Rattus norvegicus) (UniProt P33535). Briefly: Agonist activity at rat mu opioid receptor expressed in rat C6 cell membranes assessed as stimulation of [35S]GTPgammaS binding at 10 uM relative to DAMGO. Background: Binding of GTPγS marks nucleotide exchange on a G protein.

Take `CO[C@]12CC[C@@]3(C[C@]1(C)[C@H](O)c1cccs1)[C@H]1Cc4ccc(O)c5c4[C@@]3(CCN1CC1CC1)[C@H]2O5`: the %max worked out at 10%.
On to `CO[C@]12C=C[C@@]3(C[C@]1(C)[C@@H](O)c1cccc(C)c1)[C@H]1Cc4ccc(O)c5c4[C@@]3(CCN1CC1CC1)[C@H]2O5`, for which the %max came out at 40%.
On to `CO[C@]12CC[C@@]3(C[C@]1(C)[C@H](O)c1ccc(C)cc1)[C@H]1Cc4ccc(O)c5c4[C@@]3(CCN1CC1CC1)[C@H]2O5`, for which the %max worked out at 14%.
As for `CCCSc1ccc([C@@H](O)[C@@]2(C)C[C@@]34C=C[C@]2(OC)[C@@H]2Oc5c(O)ccc6c5[C@@]23CCN(CC2CC2)[C@@H]4C6)cc1`, the figure is 49%.
Consider `CO[C@]12C=C[C@@]3(C[C@]1(C)[C@@H](O)c1ccccc1)[C@H]1Cc4ccc(O)c5c4[C@@]3(CCN1CC1CC1)[C@H]2O5`, for which the %max came out at 33%.
With `CO[C@]12C=C[C@@]3(C[C@]1(C)[C@H](O)c1ccc(F)cc1)[C@H]1Cc4ccc(O)c5c4[C@@]3(CCN1CC1CC1)[C@H]2O5`, the %max stood at 26%.
